Experimental data published in PubChem BioAssay AID1715 (Vanderbilt High Throughput Screening Facility, 2009).
This is a selection; strong and weak results do not stand in their true shares. Results filed as inconclusive are left out. Active and inactive are the calls of the source.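 Rule for the calls: active = thallium flux slope more than 3 SD above or below the plate's solvent-only control mean, mostly below; inconclusive = the two repeat wells disagreed; inactive = no significant shift from solvent-only controls.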

By UniProt entry, the sequences of proteins in these tests, tags left out.
UniProt Q9H2X9, whole entry: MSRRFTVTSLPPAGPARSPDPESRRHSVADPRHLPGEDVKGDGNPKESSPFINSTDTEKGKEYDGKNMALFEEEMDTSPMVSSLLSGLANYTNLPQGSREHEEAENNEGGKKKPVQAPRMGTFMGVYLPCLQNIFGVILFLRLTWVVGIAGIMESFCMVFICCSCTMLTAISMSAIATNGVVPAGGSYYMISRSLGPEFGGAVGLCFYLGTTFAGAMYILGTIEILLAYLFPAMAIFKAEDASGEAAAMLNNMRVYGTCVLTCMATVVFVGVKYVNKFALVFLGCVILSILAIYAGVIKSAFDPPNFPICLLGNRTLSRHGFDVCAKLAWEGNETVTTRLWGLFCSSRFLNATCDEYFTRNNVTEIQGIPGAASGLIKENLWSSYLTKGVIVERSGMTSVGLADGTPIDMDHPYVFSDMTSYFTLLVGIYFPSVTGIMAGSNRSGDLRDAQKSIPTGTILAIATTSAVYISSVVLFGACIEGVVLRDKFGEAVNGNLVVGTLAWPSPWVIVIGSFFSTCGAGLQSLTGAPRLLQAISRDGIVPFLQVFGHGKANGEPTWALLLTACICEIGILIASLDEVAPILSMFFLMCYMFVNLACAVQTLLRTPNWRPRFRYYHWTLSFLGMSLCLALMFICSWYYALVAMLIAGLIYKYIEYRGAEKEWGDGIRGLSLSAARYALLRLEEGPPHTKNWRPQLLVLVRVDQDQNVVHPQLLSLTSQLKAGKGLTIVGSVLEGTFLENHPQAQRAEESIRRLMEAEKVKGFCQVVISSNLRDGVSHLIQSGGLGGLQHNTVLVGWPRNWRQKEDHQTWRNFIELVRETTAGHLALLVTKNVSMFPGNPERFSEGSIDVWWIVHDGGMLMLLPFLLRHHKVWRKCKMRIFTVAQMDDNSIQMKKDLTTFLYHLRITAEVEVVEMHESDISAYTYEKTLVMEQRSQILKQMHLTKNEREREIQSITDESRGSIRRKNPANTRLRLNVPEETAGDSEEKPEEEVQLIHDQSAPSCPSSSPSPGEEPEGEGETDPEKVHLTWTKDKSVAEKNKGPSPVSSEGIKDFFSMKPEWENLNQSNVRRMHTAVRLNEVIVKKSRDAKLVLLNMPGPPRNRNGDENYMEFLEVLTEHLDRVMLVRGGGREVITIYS

What follows are molecules tested against Solute carrier family 12 member 5 (Homo sapiens) (UniProt Q9H2X9) (assay: KCC2 modulators without ouabain present, confirmation, cell-based, HEK293 KCC2, thallium flux, FluoZin2, secondary assay 2 (AID 1715;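 note: raw slope with 0.1% DMSO as baseline and bumetanide as block control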)). Conditions: HEK293-KCC2, thallium flux FluoZin2 fluorescence; at 10 µM; actives lie on both sides; F/F0 rise rate, 10–20 s post-thallium.
For CP(=O)(Nc1ccccc1)Oc1ccc(F)cc1 (stereo unspecified), the normalized thallium flux was inactive: 0.0306.
